Key:
Format in all cases: in vivo, immunodeficient mouse (SCID-Beige)
[1] = test system: HCC-1954-luciferase cells; experiment: Trastuzumab arrival in BST2 knockout tumor transplantation model (Example 4)
Procedure: 100 nM OnTarget (registered trademark) siRNA designed to target BST2 or siRNA (manufactured by Horizon Discovery) as a control was introduced into HCC-1954-luciferase cells and cultured in an RPMI-1640 medium. After culturing, the cells were subjected to trypsin treatment according to a conventional method and suspended in a PBS buffer. Thereafter, 1/10 amounts of Matrigel (registered trademark) and 100 nM Accell (registered trademark) siRNA designed to target BST2 or siRNA (manufactured by Horizon Discovery) as a control were added thereto to prepare a cell suspension. A 1.7×10^7 cells/100 μL cell suspension was inoculated subcutaneously into the left flank of a 4-week-old female immunodeficient mouse (SCID-Beige).
After a lapse of a predetermined time after the administration, the mouse was euthanized, and the cancer cell was collected to prepare a BST2 knockout tumor transplantation model.
Using the PDX, an observation specimen sample for HER2 expression was prepared in a similar manner to Example 3, and morphologically observed. Results thereof are illustrated in FIG. 7.

[2] = test system: cancer tissue (PDX) derived from a breast cancer patient; experiment: Trastuzumab arrival inside tissue, trastuzumab fluorescent nanoparticle staining of PDX specimens (Example 1); details: PDX No. 1 and No. 2 specimens; trastuzumab 1 mg/kg or 10 mg/kg intraperitoneally; FIG. 2
Description: A cancer tissue (PDX) derived from a breast cancer patient was cut into fragments of 1 mm^3 or less and transplanted into a breast fat pad of a 4-week-old female immunodeficient mouse (SCID-Beige). The mouse was used as a first-generation transplanted mouse. After the cancer tissue transplanted into the first-generation transplanted mouse grew to a predetermined size, the grown cancer tissue was transplanted into another immunodeficient mouse. The mouse was used as a second-generation transplanted mouse. This transplantation operation was repeated to prepare a fourth-generation transplanted mouse. […] After a lapse of a predetermined time after the administration, the mouse was euthanized, and the cancer cell was collected to be used as an animal model sample of No. 1 or No. 2.
The two types of CDX samples (BT474 and HCC1954) and the two types of PDX samples (No. 1 and No. 2) prepared above were each embedded in a frozen tissue embedding agent and frozen with liquid nitrogen/n-hexane to prepare frozen blocks. […]
At this time, the excitation light was set to 575 to 600 nm using an optical filter for excitation light, and a wavelength to be observed was set to 612 to 692 nm using an optical filter for fluorescence. […]

[3] = test system: CDX samples (BT474 and HCC1954) and PDX samples (No. 1 and No. 2); experiment: Trastuzumab arrival inside tissue versus HER2 and BST2 expression in CDX and PDX specimens, incl. micro imaging (Example 3); details: for arrival level of trastuzumab inside a tissue (number of bright spots): PDX (NO. 1) specimen

## trastuzumab
[1]; BST2 knockout tumor transplantation model (BST2KD) compared with control (Wild), FIG. 7B
  number of bright spots indicating trastuzumab per cell, versus control: significantly larger
[1]; control (HCC1954 wild), FIG. 7A
  delivery of trastuzumab inside a tissue: suppressed
[2]
  bright spots of trastuzumab fluorescent nanoparticles, connective tissue region versus cancer cell region: more bright spots of trastuzumab fluorescent nanoparticles are observed inside a connective tissue region
[3]; PDX (NO. 1) and PDX (NO. 2) specimens, several regions
  correlation between HER2 expression and the arrival level of trastuzumab inside a tissue: no clear correlation
[3]; regions where BST2 expression is relatively strong, FIG. 6A
  arrival level of trastuzumab inside a tissue (number of bright spots): low
[3]; regions where BST expression is relatively low, FIG. 6B
  arrival level of trastuzumab inside a tissue (number of bright spots): high
